Amino acid sequences for entries named in this document (tags omitted).
UniProt P33533, whole entry, looked up: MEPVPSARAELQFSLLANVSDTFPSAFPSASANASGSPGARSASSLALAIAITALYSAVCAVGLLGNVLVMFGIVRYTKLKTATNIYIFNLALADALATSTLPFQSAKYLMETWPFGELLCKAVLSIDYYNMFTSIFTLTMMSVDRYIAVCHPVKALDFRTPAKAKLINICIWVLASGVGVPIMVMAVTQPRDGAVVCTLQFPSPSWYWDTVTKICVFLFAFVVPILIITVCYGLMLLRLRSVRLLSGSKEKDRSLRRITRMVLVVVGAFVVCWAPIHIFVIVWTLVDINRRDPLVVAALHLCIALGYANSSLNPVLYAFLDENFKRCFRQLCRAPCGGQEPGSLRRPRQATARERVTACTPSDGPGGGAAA
UniProt P97266, whole entry, looked up: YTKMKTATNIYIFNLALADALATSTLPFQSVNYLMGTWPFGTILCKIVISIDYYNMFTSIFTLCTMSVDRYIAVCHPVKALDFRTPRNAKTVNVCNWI

In ChEMBL document CHEMBL5154699 (Eur J Med Chem, 2022):

Experiments:
[1] = biological target: Delta-type opioid receptor (Rattus norvegicus) (UniProt P33533); test: Displacement of [3H]-DPDPE from DOR in rat brain membranes at 1 uM measured by competitive radioligand receptor binding assay relative to control; conditions: Membrane
[2] = biological target: Mu-type opioid receptor (Cavia porcellus) (UniProt P97266); test: Displacement of [3H]-DAMGO from MOR in guinea pig brain membranes at 1 uM measured by competitive radioligand receptor binding assay relative to control; conditions: Membrane

SMILES | Activity [1] [%] | Activity [2] [%]
O=C(Cc1ccc(Cl)c(Cl)c1)N1CC[C@H]2C[C@@H]1[C@@H](N1CCCC1)C2 | 0 | 0
CN(C)[C@H]1C[C@H]2CCN(C(=O)Cc3ccc(Cl)c(Cl)c3)[C@@H]1C2 | 0 | 0
CN(C)[C@@H]1C[C@@H]2CCN(C(=O)Cc3ccc(Cl)c(Cl)c3)[C@H]1C2 | 0 | 
O=C(Cc1ccc(Cl)c(Cl)c1)N1CC[C@H]2C[C@@H](N3CCCC3)[C@@H]1C2 |  | 0
